Measurements taken from publication PMC3267002 (Bioorganic & medicinal chemistry, 2011).

Amino acid sequences for entries named in this document (tags omitted). Residues count along the entry.
UniProt P28335, 33-458: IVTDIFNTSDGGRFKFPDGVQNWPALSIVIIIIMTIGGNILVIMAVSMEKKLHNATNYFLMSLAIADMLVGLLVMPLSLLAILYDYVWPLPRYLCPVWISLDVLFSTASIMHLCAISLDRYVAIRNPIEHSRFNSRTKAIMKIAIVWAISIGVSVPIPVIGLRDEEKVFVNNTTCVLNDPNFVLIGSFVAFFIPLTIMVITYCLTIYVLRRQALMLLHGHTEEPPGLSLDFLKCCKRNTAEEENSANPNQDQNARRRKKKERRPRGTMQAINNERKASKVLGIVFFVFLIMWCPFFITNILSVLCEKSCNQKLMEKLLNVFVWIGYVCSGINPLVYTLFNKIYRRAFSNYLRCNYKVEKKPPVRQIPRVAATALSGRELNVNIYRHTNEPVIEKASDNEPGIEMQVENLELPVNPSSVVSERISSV

Biological target: 5HT2C receptor (Homo sapiens, UniProt P28335)
Assay: NIMH-PDSP radioligand binding, 5HT2C

Compound: OC1(c2ccc(Cl)cc2)CCN(CCCSc2ccc(F)cc2)CC1 [Compound 6, 4-(4-chlorophenyl)-1-(3-((4-fluorophenyl)thio)propyl)piperidin-4-ol]
- Ki: > 10 µM
